Measurements: US20230002397A1, “SMALL MOLECULE DEGRADERS OF HELIOS AND METODS OF USE” (DANA-FARBER CANCER INSTITUTE, INC., priority 2019, published 2023)

By UniProt entry, the sequences of proteins in these tests, tags left out.
UniProt Q96SW2, whole entry: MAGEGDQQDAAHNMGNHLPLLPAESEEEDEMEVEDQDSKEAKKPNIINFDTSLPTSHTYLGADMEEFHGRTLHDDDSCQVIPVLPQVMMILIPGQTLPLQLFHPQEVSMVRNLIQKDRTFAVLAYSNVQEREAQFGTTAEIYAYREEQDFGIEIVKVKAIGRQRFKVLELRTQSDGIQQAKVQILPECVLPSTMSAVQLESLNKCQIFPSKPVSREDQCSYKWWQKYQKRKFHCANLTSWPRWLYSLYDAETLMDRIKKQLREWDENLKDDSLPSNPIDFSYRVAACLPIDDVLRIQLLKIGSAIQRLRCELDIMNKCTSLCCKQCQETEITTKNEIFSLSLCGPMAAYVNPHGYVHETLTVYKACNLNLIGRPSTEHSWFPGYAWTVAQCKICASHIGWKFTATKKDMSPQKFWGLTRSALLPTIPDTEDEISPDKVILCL
UniProt Q9UKS7, whole entry: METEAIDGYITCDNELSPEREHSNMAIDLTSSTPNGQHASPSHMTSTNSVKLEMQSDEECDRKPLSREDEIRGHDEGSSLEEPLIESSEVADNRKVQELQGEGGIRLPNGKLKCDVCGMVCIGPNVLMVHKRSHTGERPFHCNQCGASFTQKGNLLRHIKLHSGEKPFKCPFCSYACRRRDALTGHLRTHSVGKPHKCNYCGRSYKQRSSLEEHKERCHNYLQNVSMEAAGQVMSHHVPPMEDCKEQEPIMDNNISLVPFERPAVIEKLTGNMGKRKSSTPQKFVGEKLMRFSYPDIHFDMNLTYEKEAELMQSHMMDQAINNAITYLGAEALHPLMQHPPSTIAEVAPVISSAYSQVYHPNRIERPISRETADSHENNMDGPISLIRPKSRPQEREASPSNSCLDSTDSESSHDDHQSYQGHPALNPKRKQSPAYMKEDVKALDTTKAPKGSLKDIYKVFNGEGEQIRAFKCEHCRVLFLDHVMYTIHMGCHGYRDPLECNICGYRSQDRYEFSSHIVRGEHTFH
UniProt Q16531, whole entry partner: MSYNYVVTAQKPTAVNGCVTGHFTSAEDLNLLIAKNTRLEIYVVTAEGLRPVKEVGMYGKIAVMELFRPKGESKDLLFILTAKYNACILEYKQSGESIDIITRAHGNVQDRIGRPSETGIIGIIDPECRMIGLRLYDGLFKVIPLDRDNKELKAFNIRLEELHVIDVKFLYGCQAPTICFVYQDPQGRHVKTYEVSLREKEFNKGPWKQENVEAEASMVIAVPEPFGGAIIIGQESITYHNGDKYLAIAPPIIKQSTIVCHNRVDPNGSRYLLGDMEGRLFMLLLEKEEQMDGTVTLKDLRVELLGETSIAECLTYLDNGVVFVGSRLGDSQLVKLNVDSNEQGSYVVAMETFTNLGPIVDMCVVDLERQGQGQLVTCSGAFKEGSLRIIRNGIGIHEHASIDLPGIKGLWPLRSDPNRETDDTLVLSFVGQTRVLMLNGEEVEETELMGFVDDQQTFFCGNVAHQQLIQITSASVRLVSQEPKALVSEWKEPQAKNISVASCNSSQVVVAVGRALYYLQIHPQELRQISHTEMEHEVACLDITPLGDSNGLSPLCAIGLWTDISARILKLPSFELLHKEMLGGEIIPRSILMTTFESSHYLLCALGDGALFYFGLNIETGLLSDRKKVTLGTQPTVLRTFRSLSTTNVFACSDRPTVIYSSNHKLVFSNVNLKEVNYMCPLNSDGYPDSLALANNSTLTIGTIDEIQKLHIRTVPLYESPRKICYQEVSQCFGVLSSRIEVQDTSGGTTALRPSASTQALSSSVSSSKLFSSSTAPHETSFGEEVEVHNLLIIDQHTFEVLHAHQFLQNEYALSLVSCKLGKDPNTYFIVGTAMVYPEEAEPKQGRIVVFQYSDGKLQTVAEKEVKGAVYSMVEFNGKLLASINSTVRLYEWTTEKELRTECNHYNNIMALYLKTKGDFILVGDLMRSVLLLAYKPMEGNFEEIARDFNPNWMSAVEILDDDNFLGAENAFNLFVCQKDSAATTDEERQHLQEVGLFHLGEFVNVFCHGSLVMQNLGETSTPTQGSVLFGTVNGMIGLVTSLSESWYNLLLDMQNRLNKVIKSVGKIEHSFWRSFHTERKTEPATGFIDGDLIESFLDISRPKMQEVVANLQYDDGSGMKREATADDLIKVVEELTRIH

Biological target: IKZF2 (Homo sapiens, UniProt Q96SW2+Q9UKS7)
Assay: HiBit-IKZF2 assay (HiBiT-Helios degradation in MOLT4 cells)
Conditions: for DC50: concentration at which 50% of HiBiT-Helios degradation was achieved; for Dmax: extent of degradation from highest to lowest concentration, 10 μM to 0.00026 μM

DC50 | Dmax | SMILES
0.01 to 0.03 µM | ++ (“++” is from >50% to <70%) | O=C1CCC(N2Cc3cc(C4CCN(Cc5ccc6c(c5)NC(=O)c5ccccc5O6)CC4)ccc3C2=O)C(=O)N1 (stereo not drawn)
0.01 to 0.03 µM | ++ (“++” is from >50% to <70%) | O=C1CCC(N2Cc3cc(C4CCN(Cc5cccc6c5CCN(c5ccccc5)C6=O)CC4)ccc3C2=O)C(=O)N1 (stereo not drawn)
0.01 to 0.03 µM | ++ (“++” is from >50% to <70%) | O=C1CCC(N2Cc3cc(C4CCN(Cc5cccc(N6CCCC6=O)c5)CC4)ccc3C2=O)C(=O)N1 (stereo not drawn)
0.01 to 0.03 µM | ++ (“++” is from >50% to <70%) | O=C1CCC(N2Cc3cc(C4CCN(Cc5cccc6c5CCN(c5ccccn5)C6=O)CC4)ccc3C2=O)C(=O)N1 (stereo not drawn)
< 0.01 µM | +++ (“+++” is >70%) | O=C1CCC(N2Cc3cc(C4(O)CCN(Cc5ccccc5)CC4)ccc3C2=O)C(=O)N1 (stereo not drawn)
< 0.01 µM | ++ (“++” is from >50% to <70%) | O=C1CCC(N2Cc3cc(C4CCN(Cc5ccc6c(c5)C(=O)N(c5ccccn5)CC6)CC4)ccc3C2=O)C(=O)N1 (stereo not drawn)
0.01 to 0.03 µM | + (“+” is from >30% to <50%) | O=C1CCC(N2Cc3cc(C4CCN(Cc5cccc6c5CCCN(c5ccccn5)C6=O)CC4)ccc3C2=O)C(=O)N1 (stereo not drawn)
0.01 to 0.03 µM | ++ (“++” is from >50% to <70%) | O=C1CCC(N2Cc3cc(C4CCN(Cc5cccc(N6CC7CC7C6=O)c5)CC4)ccc3C2=O)C(=O)N1 (stereo not drawn)
0.01 to 0.03 µM | ++ (“++” is from >50% to <70%) | O=C1CCC(N2Cc3cc(C4CCN(Cc5cccc6c5CCCN(c5ccccc5)C6=O)CC4)ccc3C2=O)C(=O)N1 (stereo not drawn)
